# Reference: patent US9629836B2 (priority 2013, dated 2017)
# Counter-ions that a name gives are not always drawn.
# System: phospho-ERK1/2 in human melanoma A375 cells
# Experiment: cells
# Conditions: A-375, 3 h, read-out: A375 ICW IC50
compound,measurement,value
"Cc1nc2cnc3cc(F)c(-c4ccc(Oc5ncccn5)cc4Cl)cc3c2n1[C@H]1CCN(C(=O)COS(=O)(=O)O)C[C@@H]1F [Example 91, 2-((3S,4S)-4-(8-(2-chloro-4-(pyrimidin-2-yloxy)phenyl)-7-fluoro-2-methyl-1H-imidazo[4,5-c]quinolin-1-yl)-3-fluoropiperidin-1-yl)-2-oxoethyl hydrogen sulfate]",IC50,> 10 µM
